Literature values, collected in patent US12653874B2, “Nant cancer vaccine” (NantCell, Inc., priority 2016, dated 2026).

System: metastatic melanoma

## IL-2: immunotherapy currently approved for treatment of advanced melanoma
high-dose IL-2, metastatic melanoma
  overall ORR: 16%
In vivo
  toxicities: high toxicities
Of the subjects who responded, median follow-up of 62 months
  responders remaining progression free: 28%
